Data published in patent publication US4602945A, “Acaricidal ester of tricyclohexyl-tin hydroxide” (Rhone-Poulenc Agrochimie, priority 1983, dated 1986).

Columns and labels:
Polyphagotarsonemus = test: Acaricidal test carried out in the same manner on another species of acarids; assay type: in vivo
Description: Bean plants at the stage of 1 trifoliate leaf are contaminated with a mixed population of Tetranychus urticae.
After 48 hours, the contaminated plants are treated with aqueous dilutions of the compositions to be tested, using a spray gun of the FISCHER type, until dripping wet. These compositions consist of:
Three bean plants are used per product and per dose. The treated plants are kept in a greenhouse for 14 days (temperature 20°-25° C., relative humidity 40-60%, illumination 5 to 10,000 lux). The plants are watered at the foot, to avoid any washing off of the products.
After 2, 7 and 14 days after the treatment, the population of acarids present on each plant is estimated in relation to the mean of 3 controls treated only with water. A percentage activity is deduced therefrom: [formula]

[1] = Solubility in organic solvents; assay type: physicochemical
Description: A reactor is charged, with cyclohexanone (546 g) and 94% pure tricyclohexyl-tin hydroxide (316 g) at 50° C., with stirring. […] Benzoic acid (95 g) is then added and the temperature is kept at 50° C. After stirring for 10 minutes, a yellow solution is obtained which, after filtration and drying, gives a clear solution. An emulsifiable concentrate of specific gravity 1.057 at 20° C. is obtained by adding emulsifiers as in the preceding example.

## tricyclohexyl-tin benzoate
Polyphagotarsonemus; Polyphagotarsonemus
  lethal dose at 90%: 10 ppm
Polyphagotarsonemus; versus cyhexatin used as a wettable powder
  lethal dose at 90% relative to the reference cyhexatin: eight times less
[1]
  solubility in most of the organic solvents: excellent solubility
